Melting point values, as collected for the OPERA models

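The numbers are reported measurements, compiled and curated for the OPERA QSAR suite. One number stands for a compound and property, with no spread given. Method, purity and exact conditions of the single measurements are not given. A value may pool stereoisomers or salt forms, and the file does not say which form was measured. Unmarked limits or estimates from the upstream databases cannot be ruled out.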

Melting points are in °C.
The databases behind each value are named after "via".

- CS(=O)(=O)c1ccc(Cl)c(S(=O)(=O)Cl)c1: melting point 142 °C (via OCHEM)
- O=C(O)CNC(=O)COc1ccccc1: melting point 90 °C (via OCHEM)
- Cn1ccnc1CC(=O)c1ccccc1: melting point 97 °C (via OCHEM)
- OCCC(F)(F)C(F)(F)C(F)(F)C(F)(F)C(F)(F)C(F)(F)C(F)(F)C(F)(F)C(F)(F)F: melting point 43 °C (via ChemicalBook)
- COc1ccc2nc(C)c(C(=O)O)cc2c1: melting point 222 °C (via OCHEM)
- CS(=O)(=O)OC[C@H](O)[C@@H](O)COS(C)(=O)=O: melting point 102.2 °C (via PubChem)
- CC[N+](CC)(CC)CC.O=C([O-])c1ccccc1: melting point 72.5 °C (via eChemPortal)
- Nc1ccc(-n2ccnc2)nc1: melting point 115 °C (via OCHEM)
- COc1c(OC)c(OC(C)=O)c2cc(C#N)ccc2c1OC(C)=O: melting point 124 °C (via OCHEM)
- CNC(=O)Cc1ccc(N)cc1: melting point 85 °C (via OCHEM)
- O=C(O)C1=Nc2cccc3cccc(c23)N1: melting point 211 °C (via OCHEM)
- Cc1c(N=C=S)c(=O)n(-c2ccccc2)n1C: melting point 146 °C (via OCHEM)
- CCCOc1ccc(C#N)cc1OC: melting point 91 °C (via OCHEM)
- Nc1ccc(N2C(=O)c3ccccc3C2=O)c(Cl)c1: melting point 205 °C (via OCHEM)
- O=C(O)c1coc(Br)c1: melting point 134 °C (via OCHEM)
- O=C(CCl)Nc1cc(C(F)(F)F)ccc1Cl: melting point 72 °C (via OCHEM)
- C=CCC[C@H]1CC[C@H]([C@H]2CC[C@H](c3ccc(C)cc3)CC2)CC1: melting point 103.7 °C (via eChemPortal)
- O=Cc1ccc(-c2ccc(Cl)cc2[N+](=O)[O-])o1: melting point 93 °C (via OCHEM)
- CC(C)(C)N(NC(=O)c1ccccc1)C(=O)c1cccc(F)c1: melting point 176 °C (via OCHEM)
- O=c1nc[nH]c2cc(F)c([N+](=O)[O-])cc12: melting point 293 °C (via OCHEM)
- NCC(O)CN1CCOCC1 (stereo unspecified): melting point 38 °C (via OCHEM)
- Cc1nc(=O)c2cc(Br)ccc2[nH]1: melting point 220 °C (via OCHEM)
- Nc1cc(Br)ccc1N1CCOCC1: melting point 154 °C (via OCHEM)
- O=C(O)c1cn2cccnc2n1: melting point 256 °C (via OCHEM)
- CCCOc1ccc(C(=O)O)cc1OC: melting point 183 °C (via OCHEM)
- COc1ccccc1NC(=O)CC(=O)Nc1ccccc1OC: melting point 155 °C (via OCHEM)
- Clc1ccc(C(Cl)c2ccc(Cl)cc2)cc1: melting point 58 °C (via OCHEM)
- O=C1CCc2cc(C(=O)O)ccc2N1: melting point 262 °C (via OCHEM)
- C=CC(=O)OCC1CO1 (stereo unspecified): melting point -41.5 °C (via PubChem)
- CCN(CC)c1ccc(S(N)(=O)=O)cc1N: melting point 103 °C (via OCHEM)

A selection of 5 entries from above:

SMILES	melting point (°C)	via
O=C(O)CNC(=O)COc1ccccc1	90	OCHEM
CC[N+](CC)(CC)CC.O=C([O-])c1ccccc1	72.5	eChemPortal
O=C(O)c1cn2cccnc2n1	256	OCHEM
CCCOc1ccc(C#N)cc1OC	91	OCHEM
CC(C)(C)N(NC(=O)c1ccccc1)C(=O)c1cccc(F)c1	176	OCHEM

Data: OPERA 2.9 data sets, kmansouri/OPERA on GitHub.